# Experimental data reported in ChEMBL document CHEMBL4325822, “Discovery of a tetrazolyl β-carboline with in vitro and in vivo osteoprotective activity under estrogen-deficient conditions” (Medchemcomm, 2018).
# Columns and labels:
# Assay type in all cases: functional
# [1] = tested on: Rattus norvegicus; experiment: (§1) Antiosteoporotic activity in Sprague-Dawley rat model of OVX-induced bone loss assessed as protection against microarchitectural deterioration by measuring ratio of bone volume/trabecular volume at 1 mg/kg, po via gavage for 12 weeks by microcomputed tomographic analysis (reference value: 4.68 +/- 0.58%)
# [2] = tested on: Rattus norvegicus; experiment: as §1, with “trabecular” for “ratio of”, “pattern factor” for “volume/trabecular volume”, “10.81” for “4.68”, “0.68 /millimeter)” for “0.58%)”
# [3] = tested on: Rattus norvegicus; experiment: Antiosteoporotic activity in Sprague-Dawley rat model of OVX-induced bone loss assessed as protection against microarchitectural deterioration by measuring structural model index at 1 mg/kg, po via gavage for 12 weeks by microcomputed tomographic analysis (reference value: 2.07 +/- 0.06)
# [4] = tested on: Rattus norvegicus; experiment: as §1, with “at 5” for “at 1”
# [5] = tested on: Rattus norvegicus; experiment: Antiosteoporotic activity in Sprague-Dawley rat model of OVX-induced bone loss assessed as protection against microarchitectural deterioration by measuring trabecular bone pattern factor at 5 mg/kg, po via gavage for 12 weeks by microcomputed tomographic analysis (reference value: 10.81 +/- 0.68 /millimeter)
# [6] = tested on: Rattus norvegicus; experiment: Antiosteoporotic activity in Sprague-Dawley rat model of OVX-induced bone loss assessed as protection against microarchitectural deterioration by measuring structural model index at 5 mg/kg, po via gavage for 12 weeks by microcomputed tomographic analysis (reference value: 2.07 +/- 0.06)
structure (smiles),measurement,setting,value
CCOC(=O)c1cc2c([nH]c3ccccc32)c(C(c2nnnn2C(C)(C)C)N2CCN(C)CC2)n1 (stereo unspecified),Ratio,[1],10.55%
same,Activity,[2],5.67 /millimeter
same,Activity_index,[3],1.66
same,Ratio,[4],10.09%
same,Activity,[5],5.45 /millimeter
same,Activity_index,[6],1.61
